Values quoted from earlier work as cited in patent publication US20210196676A1, “TREATMENT OF VIRAL INFECTIONS AND VIRALLY ASSOCIATED LESIONS WITH SEQUITERPENE LACTONES” (The Board of Regents of the University of Texas System, priority 2018, published 2021).

Conditions: in vivo; cited from earlier work

## C=C1C(=O)O[C@@H]2C[C@@H](C)[C@@H]3C=CC(=O)[C@@]3(C)[C@@H](O)[C@H]12 (racemic) [H. tox, (±)-4-Hydroxy-4a,8-dimethyl-3,3a,4a,7a,8,9,9a-octahydroazuleno[6,5-b]furan-2,5-dione]
  oral LD50: 85 to 150 mg/kg
